Data published in ChEMBL document CHEMBL1800025 (J Med Chem, 2011).
Activity calls are given as the source filed them. No cut-off for these calls is given here.

Test system: Cyclin-dependent kinase 5/p25 (Homo sapiens)
Experiment: Inhibition of human recombinant CDK5/p25 at 10 uM

SMILES | inhibition
CCCNC1=N/C(=C\c2ccc3c(c2)OCO3)C(=O)N1CCC | inactive
CCCNC1=N/C(=C\c2ccc3c(c2)OCO3)C(=O)N1c1ccccc1 | inactive
